# Earlier results as cited in PubChem BioAssay AID1811 (Shanghai Institute of Organic Chemistry, 2009).
# This is one part of the list. Activity calls are given as the source filed them. Unless stated, no cut-off for active and inactive is given here.
# Test system: glutathione s-transferase
# Assay: PubChem AID 1811
# Details: PDB complex binding affinities from literature
smiles,measurement,value
N[C@@H](CCC(=O)N[C@@H](CS)C(=O)NCC(=O)O)C(=O)O,outcome,active
